According to patent publication EP3871665B1, “INHIBITORS OF RNA-BINDING PROTEINS AS ANTI-CANCER DRUGS” (priority 2020, dated 2021):

How the values were obtained:
[1] = system: naive ES-2 cells; settings: compared to the IGF2BP1 deleted ES-2 cells
[2] = system: naive ES-2 cells; assay: cells; settings: Homo sapiens, ES-2, read-out: cytoreductive effect (potency)

For `CCNC(=O)/C=C/C(=O)c1ccccc1` [J5, (E)-N-ethyl-4-oxo-4-phenylbut-2-enamide], the “selectivity to naive ES-2 cells” value [1] was “around 1.8 fold” and the IC50 [2] was 580 nM.
